Several values for one entry are separate records, joined by “and”; a condition that tells them apart may be missing. Identical values can stand only once.
Experiments:
human RORγt LBD = human RORγt LBD (Homo sapiens (Human), UniProt P51449); test: RORγt reporter assay (GAL4-RORγt LBD luciferase in HEK293T cells); assay type: cell-based; settings: 24 hours compound treatment
Text: A reporter assay was used to test functional activity of RORγt modulatory compounds on transcriptional activation driven by the RORγt LBD. Cells used in the assay were co-transfected with two constructs. The first construct, pBIND-RORγt LBD, contained the wild type human RORγt LBD fused to the DNA binding domain of the GAL4 protein. The second construct, pGL4.31 (Promega Cat no. C935A), contained multiple GAL4 responsive DNA elements upstream of firefly luciferase. […] The mutant construct was called pBIND-RORγt-AF2.
The pBIND vector contains the GAL4 DNA Binding Domain (GAL4 DBD) and the renilla luciferase gene under control of the SV40 promoter. Renilla luciferase expression serves as a control for transfection efficiency and cell viability.
The reporter assay was performed by transiently transfecting HEK293T cells with 5 ng of pBIND-RORγt LBD or pBIND-RORγt LBD-AF2 and 5 μg pGL4.31 (Promega Cat no. C935A) using Fugene 6 ([…] Cat no. E2691) at a 1:6 ratio of DNA: Fugene 6 in a T-75 flask in which cells were at least 80% confluent. Twenty four hours after bulk transfection, cells were plated into 96-well plates at 50,000 cells/well in phenol-red free DMEM containing 5% Lipid Reduced FCS and Pen/Strep. Six hours after plating, cells were treated with compounds for 24 hours. Media was removed and cells were lysed with 50 μL 1× Glo Lysis Buffer (Promega). Dual Glo Luciferase Reagent (50 μL/well) was then added and firefly luciferase luminescence was read on an Envision after a ten minute incubation. Finally, Stop and Glo reagent (50 μL/well) was added and renilla luciferase luminescence was read on an Envision after a ten minute incubation. To calculate the effect of compounds on RORγt activity, the ratio of firefly to renilla luciferase was determined and plotted against compound concentration. Agonist compounds increase RORγt-driven luciferase expression, and antagonist or inverse agonist compounds decrease luciferase expression.

Protein sequences, listed by entry. Tags and fused reporters are not part of them. Chains listed by the source or under a name are the forms on record and can include a tag or linker. Residues count along the entry.
UniProt P51449, 258-518: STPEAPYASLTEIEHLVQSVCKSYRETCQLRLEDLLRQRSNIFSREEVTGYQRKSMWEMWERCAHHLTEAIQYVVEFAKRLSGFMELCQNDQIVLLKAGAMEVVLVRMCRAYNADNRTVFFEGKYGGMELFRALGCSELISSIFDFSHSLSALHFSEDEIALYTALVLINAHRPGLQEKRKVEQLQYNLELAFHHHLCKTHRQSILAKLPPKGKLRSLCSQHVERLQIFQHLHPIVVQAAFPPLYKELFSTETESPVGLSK
UniProt P51449, other isoform, or with tags, fused parts or gaps: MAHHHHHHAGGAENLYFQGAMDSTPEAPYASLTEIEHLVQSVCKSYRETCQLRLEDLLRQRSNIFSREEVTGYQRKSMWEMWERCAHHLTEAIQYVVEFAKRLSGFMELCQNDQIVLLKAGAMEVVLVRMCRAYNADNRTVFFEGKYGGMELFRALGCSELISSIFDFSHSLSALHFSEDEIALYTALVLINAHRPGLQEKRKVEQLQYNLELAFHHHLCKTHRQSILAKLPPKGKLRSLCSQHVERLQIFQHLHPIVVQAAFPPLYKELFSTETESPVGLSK

[1] = biological target: human RORγt ligand binding domain (RORγt LBD) (Homo sapiens (Human), UniProt P51449); test: RORγt ThermoFluor assay (thermal shift binding affinity); settings: estimated from thermal shift

IC50 (human RORγt LBD) | Kd [1] | SMILES
0.0022 µM | 0.25 nM | CCc1nc2ccc(C(O)(c3cnnn3C)C3CN(S(C)(=O)=O)C3)cc2c(Cl)c1Cc1ccc(C(F)(F)F)cc1 (stereo not drawn) [Example 91A, (4-Chloro-2-ethyl-3-(4-(trifluoromethyl)benzyl)quinolin-6-yl)(1-methyl-1H-1,2,3-triazol-5-yl)(1-(methylsulfonyl)azetidin-3-yl)methanol]
~0.006 µM | 0.23 nM | CCc1nc2ccc(C(O)(c3cnnn3C)C3CN(S(C)(=O)=O)C3)cc2c(Cl)c1Cc1ccc(C(F)(F)F)cc1 (single isomer, unassigned) [Example 91C, (4-Chloro-2-ethyl-3-(4-(trifluoromethyl)benzyl)quinolin-6-yl)(1-methyl-1H-1,2,3-triazol-5-yl)(1-(methylsulfonyl)azetidin-3-yl)methanol]
0.029 µM | – | CCc1nc2ccc(C(O)(c3cnnn3C)C3CN(S(C)(=O)=O)C3)cc2c(Cl)c1Cc1ccc(C(F)(F)F)cc1 (single isomer, unassigned) [Example 91B, (4-Chloro-2-ethyl-3-(4-(trifluoromethyl)benzyl)quinolin-6-yl)(1-methyl-1H-1,2,3-triazol-5-yl)(1-(methylsulfonyl)azetidin-3-yl)methanol]

Continued, compound first:

SMILES | IC50 (human RORγt LBD) | Kd [1]
COc1nc2ccc(C(O)(c3ccc(C)nc3C)c3cnnn3C)cc2c(C#N)c1Cc1ccc(C(F)(F)F)cc1 (stereo not drawn) [Example 78A, 6-((2,6-Dimethylpyridin-3-yl)(hydroxy)(1-methyl-1H-1,2,3-triazol-5-yl)methyl)-2-methoxy-3-(4-(trifluoromethyl)benzyl)quinoline-4-carbonitrile] | 0.011 µM | –
Cn1cncc1C(O)(c1ccc(C(F)(F)F)nc1)c1ccc2nc(C#N)c(Cc3ccc(-n4cccn4)cc3)c(C#N)c2c1 (single isomer, unassigned) [Example 72C, 3-(4-(1H-Pyrazol-1-yl)benzyl)-6-(hydroxy(1-methyl-1H-imidazol-5-yl)(6-(trifluoromethyl)pyridin-3-yl)methyl)quinoline-2,4-dicarbonitrile] | 0.047 µM | –
Cn1cncc1C(O)(c1ccc(C(F)(F)F)nc1)c1ccc2nc(C#N)c(Cc3ccc(-n4cccn4)cc3)c(C#N)c2c1 (stereo not drawn) [Example 72B, 3-(4-(1H-Pyrazol-1-yl)benzyl)-6-(hydroxy(1-methyl-1H-imidazol-5-yl)(6-(trifluoromethyl)pyridin-3-yl)methyl)quinoline-2,4-dicarbonitrile] | 0.031 µM | 0.71 nM
COc1nc2ccc(C(O)(c3cnnn3C)c3cnc(C)n3C)cc2c(Cl)c1Cc1ccc(C(F)(F)F)cc1 (stereo not drawn) [Example 80A, (4-Chloro-2-methoxy-3-(4-(trifluoromethyl)benzyl)quinolin-6-yl)(1,2-dimethyl-1H-imidazol-5-yl)(1-methyl-1H-1,2,3-triazol-5-yl)methanol] | 0.011 µM | –
COc1nc2ccc(C(O)(c3ccc(C)nc3C)c3cnnn3C)cc2c(C#N)c1Cc1ccc(C(F)(F)F)cc1 (single isomer, unassigned) [Example 78C, 6-((2,6-Dimethylpyridin-3-yl)(hydroxy)(1-methyl-1H-1,2,3-triazol-5-yl)methyl)-2-methoxy-3-(4-(trifluoromethyl)benzyl)quinoline-4-carbonitrile] | 0.0017 µM | –
COc1nc2ccc(C(O)(c3cnnn3C)c3cnc(C)n3C)cc2c(Cl)c1Cc1ccc(C(F)(F)F)cc1 (single isomer, unassigned) [Example 80B, (4-chloro-2-methoxy-3-(4-(trifluoromethyl)benzyl)quinolin-6-yl)(1,2-dimethyl-1H-imidazol-5-yl)(1-methyl-1H-1,2,3-triazol-5-yl)methanol] | 0.003 µM and ~0.004 µM | –
COc1nc2ccc(C(O)(c3ccc(C)nc3C)c3cnnn3C)cc2c(C#N)c1Cc1ccc(C(F)(F)F)cc1 (single isomer, unassigned) [Example 78B, 6-((2,6-Dimethylpyridin-3-yl)(hydroxy)(1-methyl-1H-1,2,3-triazol-5-yl)methyl)-2-methoxy-3-(4-(trifluoromethyl)benzyl)quinoline-4-carbonitrile] | 0.15 µM | 120 nM
COc1nc2ccc(C(O)(c3cnnn3C)c3cnc(C)n3C)cc2c(Cl)c1Cc1ccc(C(F)(F)F)cc1 (single isomer, unassigned) [Example 80C, (4-chloro-2-methoxy-3-(4-(trifluoromethyl)benzyl)quinolin-6-yl)(1,2-dimethyl-1H-imidazol-5-yl)(1-methyl-1H-1,2,3-triazol-5-yl)methanol] | – | 0.026 nM

Reference: patent US9290476B2, “Methylene linked quinolinyl modulators of RORγt” (Janssen Pharmaceutica NV, priority 2012, dated 2016)
